1 substance from patent publication US9282737B2, “Agent for preventing pollen dispersal” (NOF Corporation, priority 2008, dated 2016) can be followed below.

Data set [1] has as its system Cryptomeria japonica male flower buds and needle leaves. Put plainly: Evaluation 1: immersion test of Cryptomeria japonica. To be noted: immersed about 1 min in agent, browning inspected visually after one week. As to the method: Evaluation 1 (Immersion Test of Cryptomeria japonica)
First, as agents to be used for an immersion test of Cryptomeria japonica, fatty acid derivative, fatty acid, polyoxyalkylene derivative, fats and oils and the like shown in Tables 1 and 2 were prepared. Next, many branches (length about 10 cm) of Cryptomeria japonica with 15 male flower buds on the tip were taken from the same tree of Cryptomeria japonica, and each group (five leaves for one group) was immersed in the agents (100 ml) of Tables 1 and 2. After immersing for about 1 min, the branches were taken out from the liquid and placed in a beaker. Browning changes were inspected visually on the male flower buds and needle leaves after one week. The test was performed using Cryptomeria japonica of August and November.

Another data set in a line: HLB of agent. Format: physicochemical.

For “polyoxyethylene sorbitan oleic acid ester [Example 6]”, in data set [1] (branches of August), the “change of state of needle leaf (August)” value is “no change”. For the same substance, the “change of state of needle leaf (November)” value in data set [1] (branches of November) was “no change”. Further, the HLB entry in “HLB of agent” is “(HLB = 15.0)”.
